Source: PubChem BioAssay (NCI)
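Test compounds were applied to cells in 96-well plates for 48 hours at 5 doses. At the GI50, growth is halved. Definition used: TGI = concentration required for complete inhibition of growth.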

Legend:
Assay in all cases: inhibition of tumour cell growth, NCI panel, 48 h
[1] = system: SN12C renal
[2] = system: IGROV1 ovarian
[3] = system: NCI-H460 lung
[4] = system: NCI-H322M lung
[5] = system: HOP-62 NSCLC
[6] = system: HCT-15 colon
[7] = system: OVCAR-3 ovarian
[8] = system: HCT-116 colon
[9] = system: SK-OV-3 ovarian
[10] = system: SNB-19 CNS
[11] = system: SF-268 CNS
[12] = system: 786-0 renal
[13] = system: TK-10 renal
[14] = system: RXF 393 renal
[15] = system: MDA-MB-231 breast
[16] = system: U251 CNS
[17] = system: HCC-2998 colon
[18] = system: SW-620 colon
[19] = system: NCI-H23 lung
[20] = system: SK-MEL-28 melanoma
[21] = system: UACC-257 melanoma
[22] = system: PC-3 prostate
[23] = system: KM12 colon
[24] = system: SF-295 CNS
[25] = system: NCI-H522 lung
[26] = system: ACHN renal
[27] = system: A549 NSCLC
[28] = system: BT-549 breast
[29] = system: CAKI-1 renal
[30] = system: T-47D breast
[31] = system: SK-MEL-2 melanoma
[32] = system: MDA-MB-435
[33] = system: OVCAR-5 ovarian
[34] = system: SNB-75 CNS
[35] = system: CCRF-CEM leukemia
[36] = system: RPMI-8226 leukemia
[37] = system: NCI-H226 lung
[38] = system: MALME-3M melanoma
[39] = system: COLO 205 colon
[40] = system: MCF7 breast
[41] = system: UO-31 renal
[42] = system: NCI/ADR-RES ovarian
[43] = system: OVCAR-8 ovarian
[44] = system: OVCAR-4 ovarian
[45] = system: SF-539 CNS
[46] = system: M14 melanoma
[47] = system: SK-MEL-5 melanoma
[48] = system: EKVX NSCLC
[49] = system: LOX IMVI melanoma
[50] = system: A498 renal

COP(C)(=O)OCC1C(C=C(C)C)C1(C)COP(C)(=O)OC (stereo not given)
GI50 [1]: > 100 µM
TGI [1]: > 100 µM
GI50 [2]: > 100 µM
TGI [2]: > 100 µM
GI50 [3]: > 100 µM
TGI [3]: > 100 µM
GI50 [4]: > 100 µM
TGI [4]: > 100 µM
GI50 [5]: > 100 µM
TGI [5]: > 100 µM
GI50 [6]: > 100 µM
TGI [6]: > 100 µM
GI50 [7]: > 100 µM
TGI [7]: > 100 µM
GI50 [8]: > 100 µM
TGI [8]: > 100 µM
GI50 [9]: > 100 µM
TGI [9]: > 100 µM
GI50 [10]: > 100 µM
TGI [10]: > 100 µM
GI50 [11]: > 100 µM
TGI [11]: > 100 µM
GI50 [12]: > 100 µM
TGI [12]: > 100 µM
GI50 [13]: > 100 µM
TGI [13]: > 100 µM
GI50 [14]: > 100 µM
TGI [14]: > 100 µM
GI50 [15]: > 100 µM
TGI [15]: > 100 µM
GI50 [16]: > 100 µM
TGI [16]: > 100 µM
GI50 [17]: > 100 µM
TGI [17]: > 100 µM
GI50 [18]: > 100 µM
TGI [18]: > 100 µM
GI50 [19]: > 100 µM
TGI [19]: > 100 µM
GI50 [20]: > 100 µM
TGI [20]: > 100 µM
GI50 [21]: > 100 µM
TGI [21]: > 100 µM
GI50 [22]: > 100 µM
TGI [22]: > 100 µM
GI50 [23]: > 100 µM
TGI [23]: > 100 µM
GI50 [24]: > 100 µM
TGI [24]: > 100 µM
GI50 [25]: > 100 µM
TGI [25]: > 100 µM
GI50 [26]: > 100 µM
TGI [26]: > 100 µM
GI50 [27]: > 100 µM
TGI [27]: > 100 µM
GI50 [28]: > 100 µM
TGI [28]: > 100 µM
GI50 [29]: > 100 µM
TGI [29]: > 100 µM
GI50 [30]: > 100 µM
TGI [30]: > 100 µM
GI50 [31]: > 100 µM
TGI [31]: > 100 µM
GI50 [32]: > 100 µM
TGI [32]: > 100 µM
GI50 [33]: > 100 µM
TGI [33]: > 100 µM
GI50 [34]: > 100 µM
TGI [34]: > 100 µM
GI50 [35]: > 100 µM
TGI [35]: > 100 µM
GI50 [36]: > 100 µM
TGI [36]: > 100 µM
GI50 [37]: > 100 µM
TGI [37]: > 100 µM
GI50 [38]: > 100 µM
TGI [38]: > 100 µM
GI50 [39]: > 100 µM
TGI [39]: > 100 µM
GI50 [40]: > 100 µM
TGI [40]: > 100 µM
GI50 [41]: > 100 µM
TGI [41]: > 100 µM
GI50 [42]: > 100 µM
TGI [42]: > 100 µM
GI50 [43]: > 100 µM
TGI [43]: > 100 µM
GI50 [44]: > 100 µM
TGI [44]: > 100 µM
GI50 [45]: > 100 µM
TGI [45]: > 100 µM
GI50 [46]: > 100 µM
TGI [46]: > 100 µM
GI50 [47]: > 100 µM
TGI [47]: > 100 µM
GI50 [48]: > 100 µM
TGI [48]: > 100 µM
GI50 [49]: > 100 µM
TGI [49]: > 100 µM
GI50 [50]: > 100 µM
TGI [50]: > 100 µM
